{
  "source": "patent US20150297615A1",
  "about": "“ANDROGEN RECEPTOR INACTIVATION CONTRIBUTES TO ANTITUMOR EFFICACY OF CYP17 INHIBITORS IN PROSTATE CANCER” (UNIVERSITY OF MARYLAND, BALTIMORE, priority 2008, published 2015)",
  "test_system": "LAPC4 cells",
  "experiment": "Cell proliferation assay (MTT), LAPC4 cells",
  "conditions": "read-out: LAPC4 IC50 (μM), DHT −, without DHT, 7 days",
  "data": [
    {"compound": "C[C@]12CCC(=O)C=C1CCC1C2CC[C@]2(C)C(n3cnc4ccccc43)=CCC12", "note": "(stereo partly shown)", "values": [
      {"measurement": "IC50", "result": 3, "unit": "µM"}
    ]}
  ]
}
